Results: ChEMBL document CHEMBL3885861, “Open TG-GATES”

Assays:
Rattus norvegicus [1] = organism: Rattus norvegicus; assay: Open TG-GATES - Regimen: Single; type: toxicity, organism-based, Sprague-Dawley; set-up: regimen Single, gender Male, age 6 weeks; conditions: in vivo, po, route gavage
Rattus norvegicus [2] = organism: Rattus norvegicus; assay: Open TG-GATES - Regimen: Daily Repeat; type: toxicity, organism-based, Sprague-Dawley; set-up: regimen Daily Repeat, gender Male, age 6 weeks; conditions: in vivo, po, route gavage; for LIVER: tissue Liver
[3] = 0 mg/kg, 3 h, tissue Plasma, dose level Control
[4] = 0 mg/kg, 6 h, tissue Blood, dose level Control
[5] = 0 mg/kg, 6 h, tissue Plasma, dose level Control
[6] = 0 mg/kg, 9 h, tissue Blood, dose level Control
[7] = 0 mg/kg, 9 h, tissue Plasma, dose level Control
[8] = 0 mg/kg, 24 h, tissue Plasma, dose level Control
[9] = 30 mg/kg, 6 h, tissue Plasma, dose level Middle
[10] = 30 mg/kg, 24 h, tissue Blood, dose level Middle
[11] = 0 mg/kg, […], tissue Plasma, dose level Control, time 14 day
[12] = 1 mg/kg, 72 h, tissue Blood, dose level Low, time 3 day
[13] = 1 mg/kg, […], tissue Blood, dose level Low, time 14 day
[14] = 1 mg/kg, […], tissue Plasma, dose level Low, time 28 day
[15] = 3 mg/kg, […], tissue Plasma, dose level Middle, time 28 day
[16] = 6 mg/kg, 3 h, tissue Plasma, dose level Low
[17] = 6 mg/kg, 6 h, tissue Plasma, dose level Low
[18] = 6 mg/kg, 9 h, tissue Plasma, dose level Low
[19] = 6 mg/kg, 24 h, tissue Plasma, dose level Low
[20] = 20 mg/kg, 3 h, tissue Plasma, dose level Middle
[21] = 20 mg/kg, 6 h, tissue Plasma, dose level Middle
[22] = 20 mg/kg, 9 h, tissue Plasma, dose level Middle
[23] = 20 mg/kg, 24 h, tissue Plasma, dose level Middle
[24] = 60 mg/kg, 3 h, tissue Plasma, dose level High
[25] = 60 mg/kg, 6 h, tissue Plasma, dose level High
[26] = 60 mg/kg, 9 h, tissue Plasma, dose level High
[27] = 60 mg/kg, 24 h, tissue Plasma, dose level High

Structure (SMILES): CN(C)CCCN1c2ccccc2CCc2ccc(Cl)cc21 [CLOMIPRAMINE]
- RBC (Rattus norvegicus [1]; 0 mg/kg, 3 h, tissue Blood, dose level Control): 644.8 x10_4/ul
- Ca (Rattus norvegicus [1]; [3]): 10.6 mg/dL
- Cl (Rattus norvegicus [1]; [3]): 105 meq/L
- RBC (Rattus norvegicus [1]; [4]): 650.2 x10_4/ul
- Cl (Rattus norvegicus [1]; [5]): 103.6 meq/L
- RBC (Rattus norvegicus [1]; [6]): 636.8 x10_4/ul
- Ca (Rattus norvegicus [1]; [7]): 10.6 mg/dL
- Cl (Rattus norvegicus [1]; [7]): 105.4 meq/L
- RBC (Rattus norvegicus [1]; 0 mg/kg, 24 h, tissue Blood, dose level Control): 655.6 x10_4/ul
- Cl (Rattus norvegicus [1]; [8]): 103 meq/L
- TG (Rattus norvegicus [1]; [8]): 126.2 mg/dL
- RBC (Rattus norvegicus [1]; 10 mg/kg, 3 h, tissue Blood, dose level Low): 677.4 x10_4/ul
- Cl (Rattus norvegicus [1]; 10 mg/kg, 3 h, tissue Plasma, dose level Low): 104.4 meq/L
- RBC (Rattus norvegicus [1]; 10 mg/kg, 6 h, tissue Blood, dose level Low): 667.2 x10_4/ul
- Cl (Rattus norvegicus [1]; 10 mg/kg, 6 h, tissue Plasma, dose level Low): 104.8 meq/L
- RBC (Rattus norvegicus [1]; 10 mg/kg, 9 h, tissue Blood, dose level Low): 645.6 x10_4/ul
- Cl (Rattus norvegicus [1]; 10 mg/kg, 9 h, tissue Plasma, dose level Low): 104.4 meq/L
- RBC (Rattus norvegicus [1]; 10 mg/kg, 24 h, tissue Blood, dose level Low): 654.4 x10_4/ul
- LIVER (Rattus norvegicus [1]; 10 mg/kg, 24 h, tissue Liver, dose level Low): 10.6 g
- Cl (Rattus norvegicus [1]; 10 mg/kg, 24 h, tissue Plasma, dose level Low): 104 meq/L
- Cl (Rattus norvegicus [1]; 30 mg/kg, 3 h, tissue Plasma, dose level Middle): 104.8 meq/L
- RBC (Rattus norvegicus [1]; 30 mg/kg, 6 h, tissue Blood, dose level Middle): 698.2 x10_4/ul
- Ca (Rattus norvegicus [1]; [9]): 10.6 mg/dL
- Cl (Rattus norvegicus [1]; [9]): 104.8 meq/L
- RBC (Rattus norvegicus [1]; 30 mg/kg, 9 h, tissue Blood, dose level Middle): 681.8 x10_4/ul
- Cl (Rattus norvegicus [1]; 30 mg/kg, 9 h, tissue Plasma, dose level Middle): 104.6 meq/L
- Hb (Rattus norvegicus [1]; [10]): 13.3 g/dL
- RBC (Rattus norvegicus [1]; [10]): 645.2 x10_4/ul
- Cl (Rattus norvegicus [1]; 30 mg/kg, 24 h, tissue Plasma, dose level Middle): 103.4 meq/L
- RBC (Rattus norvegicus [1]; 100 mg/kg, 3 h, tissue Blood, dose level High): 668.8 x10_4/ul
- Cl (Rattus norvegicus [1]; 100 mg/kg, 3 h, tissue Plasma, dose level High): 105 meq/L
- RBC (Rattus norvegicus [1]; 100 mg/kg, 6 h, tissue Blood, dose level High): 663.8 x10_4/ul
- RBC (Rattus norvegicus [1]; 100 mg/kg, 9 h, tissue Blood, dose level High): 669.6 x10_4/ul
- Cl (Rattus norvegicus [1]; 100 mg/kg, 9 h, tissue Plasma, dose level High): 105 meq/L
- RBC (Rattus norvegicus [1]; 100 mg/kg, 24 h, tissue Blood, dose level High): 684.2 x10_4/ul
- Cl (Rattus norvegicus [1]; 100 mg/kg, 24 h, tissue Plasma, dose level High): 104.4 meq/L

Structure (SMILES): O=C(O)Cc1ccccc1Nc1c(Cl)cccc1Cl [DICLOFENAC]
- LIVER (Rattus norvegicus [2]; 0 mg/kg, 72 h, dose level Control, time 3 day): 11.7 g
- Cl (Rattus norvegicus [2]; 0 mg/kg, 72 h, tissue Plasma, dose level Control, time 3 day): 102 meq/L
- LIVER (Rattus norvegicus [2]; 0 mg/kg, […], dose level Control, time 14 day): 13.8 g
- AST (Rattus norvegicus [2]; [11]): 59.8 IU/L
- Ca (Rattus norvegicus [2]; [11]): 10.4 mg/dL
- Cl (Rattus norvegicus [2]; [11]): 102.4 meq/L
- Lym (Rattus norvegicus [2]; [12]): 79.4%
- MCH (Rattus norvegicus [2]; [12]): 21.6 pg
- MCHC (Rattus norvegicus [2]; [12]): 34.9%
- ALT (Rattus norvegicus [2]; 1 mg/kg, 72 h, tissue Plasma, dose level Low, time 3 day): 40.8 IU/L
- MCH (Rattus norvegicus [2]; [13]): 21.1 pg
- MCV (Rattus norvegicus [2]; [13]): 59.1 fL
- LIVER (Rattus norvegicus [2]; 1 mg/kg, […], dose level Low, time 14 day): 13.7 g
- Ca (Rattus norvegicus [2]; [14]): 10.2 mg/dL
- Cl (Rattus norvegicus [2]; [14]): 103 meq/L
- TC (Rattus norvegicus [2]; [14]): 63.2 mg/dL
- TG (Rattus norvegicus [2]; [14]): 128.8 mg/dL
- MCV (Rattus norvegicus [2]; 3 mg/kg, 72 h, tissue Blood, dose level Middle, time 3 day): 62.1 fL
- Cl (Rattus norvegicus [2]; 3 mg/kg, 72 h, tissue Plasma, dose level Middle, time 3 day): 103.2 meq/L
- Lym (Rattus norvegicus [2]; 3 mg/kg, […], tissue Blood, dose level Middle, time 14 day): 81.6%
- Neu (Rattus norvegicus [2]; 3 mg/kg, […], tissue Blood, dose level Middle, time 28 day): 12.4%
- LIVER (Rattus norvegicus [2]; 3 mg/kg, […], dose level Middle, time 14 day): 13.4 g
- Cl (Rattus norvegicus [2]; 3 mg/kg, […], tissue Plasma, dose level Middle, time 14 day): 102.6 meq/L
- ALT (Rattus norvegicus [2]; [15]): 33.6 IU/L
- TG (Rattus norvegicus [2]; [15]): 90.6 mg/dL
- MCHC (Rattus norvegicus [2]; 10 mg/kg, 72 h, tissue Blood, dose level High, time 3 day): 34.8%
- MCV (Rattus norvegicus [2]; 10 mg/kg, […], tissue Blood, dose level High, time 14 day): 63.6 fL
- Ret (Rattus norvegicus [2]; 10 mg/kg, […], tissue Blood, dose level High, time 28 day): 12.3%
- LIVER (Rattus norvegicus [2]; 10 mg/kg, […], dose level High, time 28 day): 13.7 g
- Cl (Rattus norvegicus [2]; 10 mg/kg, […], tissue Plasma, dose level High, time 14 day): 103.6 meq/L
- Ca (Rattus norvegicus [2]; 10 mg/kg, […], tissue Plasma, dose level High, time 28 day): 10.1 mg/dL

Structure (SMILES): CC/C(=C(\c1ccccc1)c1ccc(OCCN(C)C)cc1)c1ccccc1 [TAMOXIFEN]
- ALP (Rattus norvegicus [1]; [3]): 1623.6 IU/L
- Ca (Rattus norvegicus [1]; [3]): 11.1 mg/dL
- PL (Rattus norvegicus [1]; [3]): 162.2 mg/dL
- Ret (Rattus norvegicus [1]; [4]): 9.2%
- ALP (Rattus norvegicus [1]; [5]): 1734.2 IU/L
- Ca (Rattus norvegicus [1]; [5]): 10.8 mg/dL
- PL (Rattus norvegicus [1]; [5]): 144.2 mg/dL
- Ret (Rattus norvegicus [1]; [6]): 9.8%
- Ca (Rattus norvegicus [1]; [7]): 10.5 mg/dL
- PL (Rattus norvegicus [1]; [7]): 140.8 mg/dL
- ALP (Rattus norvegicus [1]; [8]): 1627.6 IU/L
- Ca (Rattus norvegicus [1]; [8]): 11 mg/dL
- ALP (Rattus norvegicus [1]; [16]): 1574.2 IU/L
- Ca (Rattus norvegicus [1]; [16]): 11.2 mg/dL
- PL (Rattus norvegicus [1]; [16]): 157.8 mg/dL
- Ret (Rattus norvegicus [1]; 6 mg/kg, 6 h, tissue Blood, dose level Low): 10%
- ALP (Rattus norvegicus [1]; [17]): 1443.6 IU/L
- Ca (Rattus norvegicus [1]; [17]): 10.9 mg/dL
- PL (Rattus norvegicus [1]; [17]): 135.2 mg/dL
- ALP (Rattus norvegicus [1]; [18]): 1512.4 IU/L
- PL (Rattus norvegicus [1]; [18]): 118 mg/dL
- Ret (Rattus norvegicus [1]; 6 mg/kg, 24 h, tissue Blood, dose level Low): 8.5%
- ALP (Rattus norvegicus [1]; [19]): 1778.4 IU/L
- Ca (Rattus norvegicus [1]; [19]): 11 mg/dL
- PL (Rattus norvegicus [1]; [19]): 118 mg/dL
- Ret (Rattus norvegicus [1]; 20 mg/kg, 3 h, tissue Blood, dose level Middle): 10.2%
- ALP (Rattus norvegicus [1]; [20]): 1976.4 IU/L
- Ca (Rattus norvegicus [1]; [20]): 11.1 mg/dL
- PL (Rattus norvegicus [1]; [20]): 168.8 mg/dL
- Ret (Rattus norvegicus [1]; 20 mg/kg, 6 h, tissue Blood, dose level Middle): 10%
- ALP (Rattus norvegicus [1]; [21]): 1509.6 IU/L
- Ca (Rattus norvegicus [1]; [21]): 10.5 mg/dL
- PL (Rattus norvegicus [1]; [21]): 137.8 mg/dL
- Ret (Rattus norvegicus [1]; 20 mg/kg, 9 h, tissue Blood, dose level Middle): 10%
- ALP (Rattus norvegicus [1]; [22]): 1531.4 IU/L
- PL (Rattus norvegicus [1]; [22]): 108.4 mg/dL
- Ret (Rattus norvegicus [1]; 20 mg/kg, 24 h, tissue Blood, dose level Middle): 9.7%
- ALP (Rattus norvegicus [1]; [23]): 1751.4 IU/L
- Ca (Rattus norvegicus [1]; [23]): 10.9 mg/dL
- PL (Rattus norvegicus [1]; [23]): 117.4 mg/dL
- ALP (Rattus norvegicus [1]; [24]): 1502.2 IU/L
- Ca (Rattus norvegicus [1]; [24]): 11 mg/dL
- PL (Rattus norvegicus [1]; [24]): 153.2 mg/dL
- ALP (Rattus norvegicus [1]; [25]): 1465.4 IU/L
- Ca (Rattus norvegicus [1]; [25]): 10.5 mg/dL
- PL (Rattus norvegicus [1]; [25]): 136.2 mg/dL
- Ret (Rattus norvegicus [1]; 60 mg/kg, 9 h, tissue Blood, dose level High): 10.4%
- ALP (Rattus norvegicus [1]; [26]): 1543 IU/L
- Ca (Rattus norvegicus [1]; [26]): 10.4 mg/dL
- PL (Rattus norvegicus [1]; [26]): 140.2 mg/dL
- Ret (Rattus norvegicus [1]; 60 mg/kg, 24 h, tissue Blood, dose level High): 8.9%
- ALP (Rattus norvegicus [1]; [27]): 1941.4 IU/L
- Ca (Rattus norvegicus [1]; [27]): 10.9 mg/dL
